Measurements from BindingDB's records for doi:10.1021/jm070566z (Sapienza University of Rome, 2008).

By UniProt entry, the sequences of proteins in these tests, tags left out.
UniProt P21554, whole entry: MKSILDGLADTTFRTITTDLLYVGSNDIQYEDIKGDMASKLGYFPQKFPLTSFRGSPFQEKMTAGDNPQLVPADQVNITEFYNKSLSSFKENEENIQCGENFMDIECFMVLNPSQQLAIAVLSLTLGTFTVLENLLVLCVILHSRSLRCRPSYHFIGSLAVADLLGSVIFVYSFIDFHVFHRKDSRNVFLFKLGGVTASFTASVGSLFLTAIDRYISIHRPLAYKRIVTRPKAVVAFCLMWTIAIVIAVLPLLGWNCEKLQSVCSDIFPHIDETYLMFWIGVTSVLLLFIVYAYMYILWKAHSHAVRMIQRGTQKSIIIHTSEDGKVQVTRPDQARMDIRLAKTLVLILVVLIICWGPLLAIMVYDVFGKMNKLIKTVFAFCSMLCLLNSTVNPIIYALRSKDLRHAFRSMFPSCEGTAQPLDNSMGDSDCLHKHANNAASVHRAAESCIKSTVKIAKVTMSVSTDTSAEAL

Biological target: Cannabinoid receptor 1 (Homo sapiens, UniProt P21554)

Cc1ccc(Cn2nc(C(=O)NC3C(C)(C)C4CC[C@@]3(C)C4)cc2-c2ccc(Cl)c(C)c2)cc1 (stereo partly specified) [N-(1,3,3-trimethylbicyclo(2.2.1)heptan-2-yl)-5-(4-chloro-3-methylphenyl)-1-(4-methylbenzyl)pyrazole-3-carboxamide]
Ki: > 2.82 µM
